According to US11691928B2, “Compositions, systems and methods for delivery of an element in response to biological demand” (Lucent Biosciences, Inc., priority 2018, dated 2023):

What was measured:
mung bean plants [1] = assay: Plant growth study with salts or compositions comprising zinc or manganese on wood pulp in soil at elevated concentrations; assay type: in vivo
Protocol: Mung bean seeds were planted in 2 g of sterile sunshine mix soil in autoclaved jars. […] The beans were transferred into soil with either salt or compositions comprising zinc or manganese loaded on wood pulp after 6 days. The wood pulp, acting as the carrier, was Canfor 350/70-1 (carrier C from Table 1). […] The root length was measured from start of roots to longest root tip. […] The plants to be used in the presence of compositions as disclosed herein were sowed in 2 g of sunshine mix to which 0.1 g of the composition was added, made of various concentrations of zinc or manganese. These were all watered with 5 mL deionized water. The beans grew in this treatment for 9 further days.

mung bean plants [2] = test system: mung bean plants

For manganese chloride [manganese salt], the “mung bean stem height and root length growth” value (mung bean plants [1]; 1000 ppm and 2000 ppm manganese as salt in soil, 9 days, FIGS. 7(a), 7(b)) was “reduced stem height and root length growth”, the “toxicity for mung bean plants” value (mung bean plants [1]; 1000 ppm in soil) was “exhibits toxicity” and the “growth of bean plants” value (mung bean plants [2]; 1000 ppm concentration in soil, 10 days, FIGS. 5(a), 5(b)) was “reduced growth”. The “toxicity for bean plants” value (mung bean plants [2]; 1000 ppm in soil) was “exhibited toxicity”, the “growth of tomato plants” value (tomato plants; 1000 ppm concentration in soil, 11 days, FIGS. 6(a), 6(b)) was “did not negatively impact growth” and the “toxicity for tomato plants” value (tomato plants; 1000 ppm in soil) was “did not exhibit toxicity”.
